The campaign covered roughly 330,000 compounds. About 4,100 (1.2%) were called active. Listed are the inconclusive results; actives and inactives stand elsewhere. Rule for the calls: active = max response of -50% or lower; inconclusive = between -30% and -50%; inactive = -30% or higher.
Biological target: Phosphatidylinositol 5-phosphate 4-kinase type-2 alpha (Homo sapiens) (UniProt P48426)
Experiment: qHTS for Inhibitors of phosphatidylinositol 5-phosphate 4-kinase (PI5P4K); note: value at the top dose of about 77 µM
Settings: PI5P4Kalpha enzyme, ADP-Glo luminescence, 60 min; hits give low values
Source text: In addition to finding PI5P, we discovered the type II phosphatidylinositol 5-phosphate 4-kinase (PI5P4K) family (alpha, beta, gamma isoforms) that catalyze the conversion of PI5P to PI(4,5)P2. Alternatively, PI(4,5)P2 can also be synthesized through phosphatidylinositol-4-phosphate (PI4P) by the type I phosphatidylinositol 4-phosphate 5-kinases (PI4P5K). These PI5P4K enzymes therefore represent one way by which cells can regulate endogenous PI5P levels and play important roles in insulin signaling and in stress responses.
This proposal aims to identify and optimize specific modulators of human PI5P4K, phosphatidylinositol-5-phosphate 4-kinase (Type II PIPK), a family of kinases that regulate AKT signaling and tumor cell growth. In this project we aim to identify inhibitors of human PI5P4K using a quantitative high-throughput screening approach against the MLSMR containing ~400,000 small molecules.
NIH Chemical Genomics Center [NCGC]
NIH Molecular Libraries Probe Centers Network [MLPCN]
Assay Submitter (PI): Atsuo Sasaki, Beth Israel Deaconess Medical Center
2 microL of PI5P4Kalpha/substrate buffer (columns 1-2, 5-48) are dispensed into Greiner white solid bottom 1536-well assay plates; column 3 receives only PI5P4Kalpha buffer as 0x substrate controls; column 4 receives only substrate buffer as 0x PI5P4Kalpha controls. Final assay buffer consists of 0.038 M HEPES pH 7.4, 0.28 mM EGTA, 0.1% CHAPS, and 5% DMSO (final concentration). Compounds are then transferred via Kalypsys pin tool equipped with 1536-pin array (10 nL slotted pins, V&P Scientific, San Diego, CA). Following addition of compound, 1 microL of ATP (5 microM final concentration, all columns) is added to initiate the reaction. ATP is diluted in an assay buffer consisting of 0.02 M HEPES pH 7.4, 60 mM MgCl2, 15 microM ATP, and 0.1% CHAPS. The plates are then incubated at room temperature for 60 minutes. ADP-Glo reagent 1 is added (2 microL) and plates incubated for 45 minutes, before ADP-Glo reagent 2 (4 microL) is added and plates incubated for 30 minutes. They are then transferred to a ViewLux high-throughput CCD imager (PerkinElmer) wherein single end-point measurements of luminescence are acquired using a clear filter.
% is set by controls: 0 for no effect and ±100 for the full control effect.

By UniProt entry, the sequences of proteins in these tests, tags left out. Where a name states a change or a piece, a line headed by the entry shows the natural chain unless it says otherwise.
UniProt P48426: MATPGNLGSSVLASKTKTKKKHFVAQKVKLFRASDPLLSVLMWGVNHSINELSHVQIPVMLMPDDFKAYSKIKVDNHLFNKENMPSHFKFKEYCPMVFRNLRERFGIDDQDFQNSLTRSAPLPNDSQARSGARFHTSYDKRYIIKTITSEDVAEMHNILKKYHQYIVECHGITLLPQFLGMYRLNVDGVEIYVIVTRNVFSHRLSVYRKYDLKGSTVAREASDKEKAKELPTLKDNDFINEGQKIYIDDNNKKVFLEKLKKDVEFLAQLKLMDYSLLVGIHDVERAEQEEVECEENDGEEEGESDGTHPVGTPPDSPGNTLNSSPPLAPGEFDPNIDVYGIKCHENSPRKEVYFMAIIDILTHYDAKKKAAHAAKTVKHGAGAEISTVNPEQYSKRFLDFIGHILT

SMILES	max response
O=[N+]([O-])c1cc([N+](=O)[O-])c(-c2ccn[nH]2)s1	inconclusive: -32.6%
Cc1cc(SC(NC(=O)c2ccccc2)C(Cl)(Cl)Cl)nc(C(C)C)n1 (configuration not stated)	inconclusive: -36.5%
CSc1ccc(Nc2c([N+](=O)[O-])cc([N+](=O)[O-])cc2[N+](=O)[O-])cc1	inconclusive: -34.9%
CN(CCCl)Cc1cc(Cl)c(NC2=NCCN2)c(Cl)c1	inconclusive: -39.3%
CC(=O)Nc1ccc(Oc2c([N+](=O)[O-])cc([N+](=O)[O-])cc2[N+](=O)[O-])cc1	inconclusive: -30%
c1cc(-c2nn[nH]n2)ccc1-c1nn[nH]n1	inconclusive: -34.8%
O=[N+]([O-])c1cc([N+](=O)[O-])c(CCNc2ccccc2)c([N+](=O)[O-])c1	inconclusive: -45.5%
